Assay results taken from PubChem BioAssay AID2016 (NMMLSC, 2009).
The list shows a part of the results, in another mix than the full data. Calls of active or inactive are those of the source.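 How the source made its calls: active means GFP response versus DMSO above a set limit, roughly screen mean plus 3 SD (cut at about 180% in these data); inconclusive means fewer than 70 cells counted for a yeast strain; inactive means the rest.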

Assay: TOR pathway GLN3 branch reporter MEP2-GFP changes – S. cerevisiae, multiplex flow cytometry, MLPCN library, primary screen (AID 2016);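 further: median GFP fluorescence of the barcode-gated MEP2-GFP cells per well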
Details: S. cerevisiae MEP2-GFP strain, 3 h, at 10 µM, active compounds read high, 100% = DMSO control level

| SMILES | GFP response vs DMSO |
| --- | --- |
| Cc1cccc(OCC(=O)OC2CN3CCC2CC3)c1 (stereo unspecified) | inactive: 93.5% |
| O=C(OC1CN2CCC1CC2)c1ccc(Cl)cc1 (stereo unspecified) | inactive: 90.9% |
| COc1cc(C(=O)NCC2(N3CCOCC3)CCCCC2)cc(Cl)c1OC(C)C | inactive: 102% |
| O=[As](O)(O)c1cccnc1 | inactive: 100% |
| CS(=O)(=O)c1ccc(Cl)c(NC(=O)COC(=O)C(O)(c2ccccc2)c2ccccc2)c1 | inactive: 104% |
| N#CCCN(C(=O)COC(=O)C(O)(c1ccccc1)c1ccccc1)c1ccc(F)cc1 | inactive: 95.4% |
| CCOP1(=S)c2c(C)nn(CCC#N)c2N=C(c2ccc(F)cc2)N1C (stereo unspecified) | inactive: 97.3% |
| CN(C(=O)Cc1ccccc1)[C@@H]1CC[C@]2(CCCO2)C[C@H]1N1CCCC1 | inactive: 96.7% |
| CN(C)C(=O)c1cc([N+](=O)[O-])cc2c1-c1c(cc([N+](=O)[O-])cc1[N+](=O)[O-])C2=O | inactive: 83.8% |
| O=[N+]([O-])c1ccc2c(c1)nnn2O | inactive: 106% |
| CN(C(=O)Cc1ccc(Cl)c(Cl)c1)[C@H]1CC[C@@]2(CCCO2)C[C@@H]1N1CCCC1 | inactive: 96.1% |
| NC(=O)Nc1ccc([As](=O)(O)O)cc1 | inactive: 88.8% |
| Nc1ccccc1[As](=O)(O)c1ccccc1 | inactive: 93.5% |
| O=C(O)COc1ccc([As](=O)(O)O)cc1[N+](=O)[O-] | inactive: 130% |
| CCOP1(=S)c2c(C)nn(CCC#N)c2N=C(c2ccccc2F)N1C (stereo unspecified) | inactive: 101% |
| O=P(Nc1nccs1)(c1ccccc1)c1nc2ccccc2s1 (stereo unspecified) | inactive: 98.8% |
| O=P(Nc1nccs1)(Oc1ccccc1)Oc1ccccc1 | inactive: 99.4% |
| CS(=O)(=O)c1cc([N+](=O)[O-])c2no[n+]([O-])c2c1 | inactive: 102% |
| CCN(CC)C(=S)SC(NC=O)C(Cl)(Cl)Cl (stereo unspecified) | inactive: 105% |
| CC(C)NC(=O)NP(=O)(Oc1ccccc1)Oc1ccccc1 | inactive: 94.7% |
| O=[N+]([O-])c1cc([N+](=O)[O-])c(-c2ccn[nH]2)s1 | inactive: 85.8% |
| ClCCSc1nnc(-c2cccnc2)o1 | inactive: 98.6% |
| CC(C)c1ccc(OP(=O)(Nc2ccccn2)Oc2ccccc2F)cc1 (stereo unspecified) | inactive: 94.2% |

| SMILES | GFP response vs DMSO |
| --- | --- |
| Cc1ccc(OP(=O)(Nc2ccc([N+](=O)[O-])cn2)Oc2ccc(C)cc2)cc1 | inactive: 108% |
| Cc1ccc2nc3c(c(C)c2c1)CC(C(Cl)Cl)S3 (stereo unspecified) | inactive: 103% |
| O=[As](O)(c1ccc(O)cc1)c1ccccc1O | inactive: 94.7% |
| C[As](=O)(O)c1cccc(C(=O)O)c1 | inactive: 102% |
| COc1cc(C(=O)NCC2(N3CCOCC3)CCCCC2)ccc1OCC(C)C | inactive: 104% |
| COc1ccc(N/C(=N/P(=O)(N2CCOCC2)N2CCOCC2)N2CCOCC2)cc1 | inactive: 96.2% |
| COc1ccc2nc(NP(=O)(c3ccccc3)c3ccccc3)sc2c1 | inactive: 96.3% |
| COc1cc(I)ccc1[As](=O)(O)O | inactive: 101% |
| Cc1c2c(nc3ccccc13)SC(C(Cl)Cl)C2 (stereo unspecified) | inactive: 102% |
| O=C(OC1CN2CCC1CC2)C12CC3CC(CC(C3)C1)C2 (stereo unspecified) | inactive: 108% |
| Cc1cc(=O)[nH]c(N[N+](=O)[O-])n1 | inactive: 102% |
| CCC(C)N(CC(C)C)C(=S)SC(NC(C)=O)C(Cl)(Cl)Cl (stereo unspecified) | inactive: 93.9% |
| O=C(OC1CN2CCC1CC2)c1cccc([N+](=O)[O-])c1 (stereo unspecified) | inactive: 105% |
| CCOC(=O)c1ccc(NC(=O)C(C)(CCl)SC)cc1 (stereo unspecified) | inactive: 97.7% |
| O=C(COc1ccccc1)OC1CN2CCC1CC2 (stereo unspecified) | inactive: 89.8% |
| O=C(Nc1ccncc1[N+](=O)[O-])c1ccc([N+](=O)[O-])cc1[N+](=O)[O-] | inactive: 96.8% |
| COP1(=S)c2c(C)nn(CCC#N)c2N=C(c2ccc(F)cc2)N1C (stereo unspecified) | inactive: 107% |
| O=P(Nc1ccccn1)(c1cccc2ccccc12)c1cccc2ccccc12 | inactive: 96.6% |
| Cc1cc(SC(NC=O)C(Cl)(Cl)Cl)ncn1 (stereo unspecified) | inactive: 97.5% |
| O=[N+]([O-])c1ccc(Nc2ccc(Oc3ccc([N+](=O)[O-])cc3[N+](=O)[O-])cc2)c([N+](=O)[O-])c1 | inactive: 106% |
| CCOC(=O)Nc1cccc([As](=O)(O)O)c1 | inactive: 98.8% |
| Cc1cc(SC(NC(=O)c2ccccc2)C(Cl)(Cl)Cl)nc(C(C)C)n1 (stereo unspecified) | inactive: 99.5% |
| CCOC(=O)Nc1ccc([As](=O)(O)O)c(O)c1 | inactive: 106% |
